Structures are written as SMILES.

The chains behind the UniProt entries cited, without tags or fusion partners.
UniProt P14842, whole entry: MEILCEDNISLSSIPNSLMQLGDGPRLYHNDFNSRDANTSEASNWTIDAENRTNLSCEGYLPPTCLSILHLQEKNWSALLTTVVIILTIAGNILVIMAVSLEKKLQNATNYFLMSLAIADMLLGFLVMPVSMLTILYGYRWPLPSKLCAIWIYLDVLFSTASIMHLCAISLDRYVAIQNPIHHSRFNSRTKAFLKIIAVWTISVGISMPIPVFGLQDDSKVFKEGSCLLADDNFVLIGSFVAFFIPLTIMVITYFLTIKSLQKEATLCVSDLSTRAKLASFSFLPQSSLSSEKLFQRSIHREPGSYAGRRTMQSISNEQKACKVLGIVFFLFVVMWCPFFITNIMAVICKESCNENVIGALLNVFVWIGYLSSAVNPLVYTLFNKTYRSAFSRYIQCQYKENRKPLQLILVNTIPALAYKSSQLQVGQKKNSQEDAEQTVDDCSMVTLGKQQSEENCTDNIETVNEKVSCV

The target of this experiment is 5HT2 receptors (Rattus norvegicus, UniProt P14842). Description: Displacement of 3H-ketanserine binding to 5HT2 receptors (front cortex of rat brain). (Loss of bound radioactivity is the signal in a displacement assay; it reports binding, not function.)

As a reminder, the Ki is the equilibrium dissociation constant of an inhibitor or competing ligand from its target. Compound `Cc1nc2sccn2c(=O)c1CCN1CCC(=C(c2ccc(F)cc2)c2ccc(F)cc2)CC1` [Ritanserine] came in with an inhibition constant (Ki) of 2.6 nM.
